Test system: primary T-cells
Test: Primary T-cell viability 24 hours post-transfection
Format: cell-based, human
Conditions: P<=0.05, data not shown
Protocol: 48 hours after isolation, the cells were harvested by centrifugation (300 g, RT, 5 minutes) and re-suspended in 20 μL at 50×10^6 cells mL^−1 in the supplemented P3 Primary Cell Nucleofector Kit buffer (Lonza). The cells were mixed with HDR templates and the suspension transferred to the RNPs immediately before transfection (Nucleofection program EH-115). After transfection, 80 μL of pre-warmed cultivation medium without IL-2 was added to the electroporation cuvettes. When using M3814 (Selleckchem), 80 μL of pre-warmed cultivation medium containing 2 μM M3814 final concentration without IL-2 was added to the electroporation cuvettes. After 10 minutes of incubation at 37° C., T-cells were transferred onto 96-well, flat-bottom, non-cell culture treated plates (Falcon) containing pre-warmed cultivation medium pretreated with 2 μM M3814 final concentration and 12.5 ng mL^−1 IL-2. The cells were seeded at a density of 0.25×10^6 cells mL^−1, or 1.3×10^6 cells mL^−1 in the experiment with M3814, and kept at 37° C., in 5% CO2 incubators. […] Insertion efficiency of CAR was measured after 7 days, and 11 days or 13 days post-transfection.
For the cell viability and GFP knock-in measurements, approximately 250,000 cells per sample were transferred onto 96-well V-bottom cell culture plates and assessed following a series of consecutive washing and staining steps. […]

## poly-L-glutamic acid [PGA]
  cell viability, treatment with PGA compared to without PGA: higher

Source: patent publication US20250179481A1, “COMPOSITIONS AND METHODS FOR TARGETING, EDITING, OR MODIFYING GENES” (Celyntra Therapeutics SA, priority 2021, published 2025)
